# Binding of CDR-mutated scFvs to a peptide of the spike HR2 region

Source: Engelhart et al. 2022 (doi:10.1038/s41597-022-01779-4), MIT Lincoln Laboratory and A-Alpha Bio; data file from the FLAb repository.

Target: peptide PDVDLGDISGINAS, taken from heptad repeat 2 (HR2) of SARS-CoV-2 spike.

Each scFv is VH, a 15-residue (Gly4Ser)3 linker, VL, as in the parent Ab-95, and differs from it in the CDRs of the light chain only.
VH: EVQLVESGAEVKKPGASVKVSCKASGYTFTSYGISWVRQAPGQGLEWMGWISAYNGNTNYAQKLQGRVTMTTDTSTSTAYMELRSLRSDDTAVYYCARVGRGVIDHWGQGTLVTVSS
VL: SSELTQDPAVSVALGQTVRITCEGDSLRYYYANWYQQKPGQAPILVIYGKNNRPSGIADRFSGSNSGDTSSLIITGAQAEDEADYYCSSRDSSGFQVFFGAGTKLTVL

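The parent was found by panning a naive human phage display library on the peptide. The library (AAYL52) carries one to three amino acid substitutions per variant, with no insertions or deletions. The assay is AlphaSeq: two haploid yeast populations carry antibody and antigen on their surface. Pairs that bind mate more often; barcode pairs of the diploids are counted by sequencing. Scores were corrected for input abundance and mapped to Kd with protein pairs of known affinity run in the same pool. Mating was done three times.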

Positions count from residue 1 of the parent VL; K50R puts R in place of K.
All variants listed here change R53 of the VL, counted from its first residue.
Kd is apparent (estimated from mating counts) and averaged on the log scale over replicates with a signal. Smaller is tighter.
"nd" means that the variant was in the library but no mating with the target was seen in any replicate; the authors take this as a sign of poor binding, and no number exists.
The list is sorted by this average, lowest first, undetected variants last.
For reference, the parent read 200 nM as the reference entry and 180 nM as a member of this library.

The variant K50R+R53S+F95Y showed 240 nM (2 of 3 replicates).
The variant N51S+R53A+S92R showed 560 nM (3 of 3 replicates).
The variant E23K+R53V+G94C showed 810 nM (3 of 3 replicates).
The variant N52S+R53S+V97Y showed 940 nM (2 of 3 replicates).
The variant R53N+F95H showed 980 nM (3 of 3 replicates).
The variant E23N+R53E+P54L showed 1.6 µM (1 of 3 replicates).
The variant R53H+S55Q+Q96G showed 2.0 µM (3 of 3 replicates).
The variant R53N+F95S showed 2.0 µM (3 of 3 replicates).
The variant Y30M+R53N+V97F showed 2.1 µM (2 of 3 replicates).
The variant R53T+R90N+S93Y showed 2.2 µM (2 of 3 replicates).
The variant R53P+S92R showed 2.4 µM (2 of 3 replicates).
The variant R53I+F95D showed 2.5 µM (3 of 3 replicates).
The variant N33S+R53P+P54M showed 2.6 µM (2 of 3 replicates).
The variant R53D+S89P+F98A showed 3.8 µM (1 of 3 replicates).
The variant R53D+R90L+D91I showed 5.4 µM (2 of 3 replicates).
The variant R53V+P54W showed 6.1 µM (3 of 3 replicates).
The variant R28H+R53F+Q96N showed 6.4 µM (2 of 3 replicates).
The variant R28I+R53Y+Q96H showed 7.3 µM (2 of 3 replicates).
The variant E23A+N51H+R53D showed 8.3 µM (3 of 3 replicates).
The variant R53M+Q96I+V97L showed 11 µM (3 of 3 replicates).
The variant R28Y+Y30F+R53F showed 11 µM (3 of 3 replicates).
The variant R53S+G94D showed 12 µM (3 of 3 replicates).
The variant E23W+S26C+R53S showed 12 µM (1 of 3 replicates).
The variant R53D+P54D+D91H showed 25 µM (2 of 3 replicates).
The variant E23D+R53M+S89G showed 31 µM (3 of 3 replicates).
The variant N33G+R53L+R90I showed 56 µM (3 of 3 replicates).
The variant G49M+R53F+S89D showed 75 µM (1 of 3 replicates).
The variant L27E+R53H+P54R showed 81 µM (1 of 3 replicates).
The variant G49I+R53E+P54L showed 92 µM (1 of 3 replicates).
The variant G24N+A32W+R53C showed 260 µM (1 of 3 replicates).
The variant G24P+R53K+S93C showed nd (0 of 3 replicates).
The variant R53E+S88Q+S89M showed nd (0 of 3 replicates).
The variant R53W+S89A+D91N showed nd (0 of 3 replicates).
The variant Y30A+R53P+S93F showed nd (0 of 3 replicates).
The variant Y30L+G49R+R53N showed nd (0 of 3 replicates).
The variant G49S+R53M+S93V showed nd (0 of 3 replicates).

Picked from the list: the 4 lowest averages where every replicate gave a value.

With N51S+R53A+S92R the result was 560 nM (3 of 3 replicates).
With E23K+R53V+G94C the result was 810 nM (3 of 3 replicates).
With R53N+F95H the result was 980 nM (3 of 3 replicates).
With R53H+S55Q+Q96G the result was 2.0 µM (3 of 3 replicates).

Three control strains display no target. For library AAYL52, 28% of the pairings with them gave a signal, with a median of 8.2 µM and one signal in twenty below 800 nM, so weak values seen in few replicates may be background.